Rango-impB inh = qHTS Assay for Inhibitors of Rango (Ran-regulated importin-beta cargo) - Importin beta complex formation. Importin subunit beta-1 (Homo sapiens), Q14974. Rango CFP/YFP FRET sensor + importin beta, 45 min. Potency, µM (top dose mostly 92.2 µM). 0.031% of 340,000 active. AID 540263, 2011; calls by dose curve; further: nearly all actives have a fitted effect of over 15% in size
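Inhibition scored from the CFP 486 nm/YFP 530 nm FRET ratio 45 min after adding 0.125 microM importin beta to 50 nM Rango biosensor preincubated 5 min with compound (room temperature, PBS with DTT, Tween-20, BSA). No-importin wells as positive control.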
Vif-APOBEC3F blk = qHTS for Inhibitors of Vif-A3F Interactions: qHTS. HeLa A3F-eYFP + Vif (tagged APOBEC3F with the HIV-1 protein that degrades it), YFP fluorescence increase. Potency, µM (highest dose often 46.1 µM). 0.2% of 390,000 active. AID 602313, 2012; further: nearly all actives have a fitted effect of over 65% in size
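HeLa cells stably expressing Vif plus C-terminally eYFP-tagged A3F were seeded, incubated overnight at 37 deg C, dosed with compound, incubated overnight again at 37 deg C. Yellow fluorescence (Ex 488/Em 500-530) reported blocked Vif-mediated A3F-eYFP degradation.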
Rango release inh = qHTS Assay for Inhibitors of RanGTP induced Rango (Ran-regulated importin-beta cargo) - Importin beta complex dissociation | Biochemical FRET Rango-importin beta, RanGTP-induced dissociation | Potency, µM (highest dose often 46.1 µM) | 0.071% of 340,000 active | AID 540253, 2011; calls by dose curve; further: nearly all actives have a fitted effect of over 45% in size
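Rango/importin beta premix (0.1/0.25 uM final), PBS + 1 mM DTT + 0.02% Tween-20 + 0.1% BSA; cpd 5 min RT; FRET pre-read; + RanGTP-RCC1 (0.6 uM Ran, 2 mM GTP, 0.2 uM RCC1); 45 min RT; FRET post-read, ex 430, em 486/530 nm.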
Vif-A3G inh = qHTS for Inhibitors of Vif-A3G Interactions: qHTS; DNA dC->dU-editing enzyme APOBEC-3G (Homo sapiens), Q9HC16; HeLa A3G-eYFP + Vif (tagged APOBEC3G with the HIV-1 protein that degrades it), YFP fluorescence, overnight; Potency, µM (highest dose often 46.1 µM), usual class: inhibitors; 0.076% of 410,000 active; AID 602310, 2012; further: nearly all actives have a fitted effect of over 60% in size
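Read-out is eYFP fluorescence (Ex 488/Em 500-530) from Vif-expressing HeLa A3G-eYFP cells; more signal means A3G escaped Vif-mediated degradation. Cells plated overnight, compound pinned in, incubated overnight at 37 deg C.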
Eya2 inh = qHTS Assay for Inhibitors of the Phosphatase Activity of Eya2. Protein phosphatase EYA2 (Homo sapiens), O00167. recombinant Eya2, OMFP fluorescence dephosphorylation (OMFP is methylfluorescein phosphate). Potency, µM (doses to about 76.9 µM), actives largely listed as inhibitors. 0.006% of 330,000 active
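Eya2 protein (added as 0.2 uM solution) was preincubated with compound for 10 min at ambient temperature in 50 mM HEPES pH 7.5, 50 mM NaCl, 5 uM MgCl2, 0.05% BSA, 1 mM DTT. OMFP (added at 50 uM) then reacted 10 min; fluorescence read at 485/525 nm.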
ASM inhibitor = Inhibitors of Secretory Acid Sphingomyelinase (S-ASM): qHTS; placental ASM, HMU-PC fluorogenic substrate, 60 min; Potency, µM (titrated, usually from 57.5 µM), hits mostly inhibitors; 0.006% of 340,000 active
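Human placenta-derived ASM enzyme was preincubated with compound for 10 minutes at room temperature, then given fluorogenic substrate HMU-PC0 (9 uM final) for 60 minutes at 37 °C; a pH 10 stop preceded fluorescence reading at Ex 386/Em 447 nm.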
Hits are given with their value; i = inactive; ? = inconclusive; nt = no result given; ! = repeats disagree; [ ] = dose if it differs, or a comment. This is a sample that favours compounds with a hit; in the whole collection about 0.34% have one here. Unless noted, the call rests on the fitted dose curve; in most records, active means well fitted curve in the direction sought with a large enough effect; inconclusive means small, poorly fitted or top-dose-only effect, or another doubt; inactive means no such curve, though single readings can be large; an effect the other way counts as inactive or inconclusive.

The chains behind the UniProt entries cited, without tags or fusion partners.
Importin subunit beta-1 (Homo sapiens), Q14974, UniProt Q14974, whole entry, looked up: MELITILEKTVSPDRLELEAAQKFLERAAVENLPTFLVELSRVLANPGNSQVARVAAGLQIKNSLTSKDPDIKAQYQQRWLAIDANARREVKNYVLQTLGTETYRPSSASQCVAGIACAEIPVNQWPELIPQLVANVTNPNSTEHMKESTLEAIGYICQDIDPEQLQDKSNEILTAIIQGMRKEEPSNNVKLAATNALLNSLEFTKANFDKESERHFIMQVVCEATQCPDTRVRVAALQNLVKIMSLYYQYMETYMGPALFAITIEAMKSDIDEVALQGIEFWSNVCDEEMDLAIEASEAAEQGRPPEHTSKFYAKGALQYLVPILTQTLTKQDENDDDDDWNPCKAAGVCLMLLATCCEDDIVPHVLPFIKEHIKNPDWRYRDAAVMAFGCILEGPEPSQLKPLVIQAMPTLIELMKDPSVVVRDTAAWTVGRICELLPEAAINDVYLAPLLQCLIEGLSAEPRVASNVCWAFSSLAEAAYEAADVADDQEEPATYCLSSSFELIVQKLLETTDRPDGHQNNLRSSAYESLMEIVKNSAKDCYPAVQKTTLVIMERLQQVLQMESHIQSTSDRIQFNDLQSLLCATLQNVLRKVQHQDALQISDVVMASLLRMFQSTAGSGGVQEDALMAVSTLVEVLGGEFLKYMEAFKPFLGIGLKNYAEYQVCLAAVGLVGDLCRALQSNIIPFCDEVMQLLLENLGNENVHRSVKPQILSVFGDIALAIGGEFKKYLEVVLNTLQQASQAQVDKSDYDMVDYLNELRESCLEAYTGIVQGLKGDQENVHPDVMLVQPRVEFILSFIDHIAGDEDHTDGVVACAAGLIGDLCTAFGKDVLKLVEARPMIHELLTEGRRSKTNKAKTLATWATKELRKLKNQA

SMILES | Rango-impB inh | Vif-APOBEC3F blk | Rango release inh | Vif-A3G inh | Eya2 inh | ASM inhibitor
CC(=O)c1ccc(NC(=O)CN2C(=O)/C(=C/C=C/c3ccccc3)SC2=S)cc1 | 29.1µM | ? | i | i | i | i
CCOc1ccc(NC(=O)COc2ccc(C(=O)NCc3cccc(OC)c3)cc2OC)cc1 | i | i | i | i | i | i
CCOc1ccc(NC(=O)COc2ccc(C(=O)NCc3cccnc3)cc2OC)cc1 | i | i | 0.366µM | i | i | nt
Cc1cc(C(Br)(Br)Br)nc2ccccc12 | nt | nt | nt | i | nt | nt
O=C(/C=C/c1ccco1)N1CCc2ccccc21 | i | 11.2µM | i | ? | i | i
COc1ccccc1N1C(=O)c2cccc3c(N(C)CCO)ccc(c23)C1=O | ? | ? | ? | ? | ? | i
Cc1ccccc1N1C(=O)c2cccc3c(N(C)CCO)ccc(c23)C1=O | ? | 12.6µM | ? | i | i[15.4 µM] | i
COCCN(CCOC)Cc1c(O)ccc2c1O/C(=C\c1ccc(C)o1)C2=O | ? | 25.1µM | ? | i | ? | i
CCN(CC)Cc1c(O)ccc2c1O/C(=C\C=C\c1ccccc1)C2=O | ? | ? | ? | i | i | i
CC(C)CSc1nnc(-c2ccccc2)c(-c2ccccc2)n1 | nt | i | nt | i | nt | nt
CC(=O)Nc1ccc2nc(NC(=O)c3ccc([N+](=O)[O-])o3)sc2c1 | i | i | i | 12.6µM | i | i
CCOC(=O)c1cnc(-n2nc(C)cc2C)nc1NNc1nc(-c2ccccc2)cc(-c2ccccc2)n1 | i | 7.08µM | i | i | i | i
C[n+]1ccc(/C=C/c2cc[n+](C)c3ccccc23)c2ccccc21 | nt | nt | nt | 12.6µM | nt | nt
COc1ccc(C2C=C3CN(C(=O)OC(C)(C)C)S(=O)(=O)C3CC2OC(=O)c2cccc(C)c2)cc1 (stereo unspecified) | nt | nt | nt | i | nt | nt
Oc1[nH]c2ccccc2c1N=Nc1ccccc1Cl | ? | 22.4µM | ? | i | nt | i
Oc1[nH]c2ccccc2c1N=Nc1c(F)c(F)c(Cl)c(F)c1F | i | i | i | i | i | i
COCCn1c(-c2ccc(-c3ccccc3Cl)o2)nc2c1c(=O)[nH]c(=O)n2CC(C)C | ? | ? | 6.51µM | i | i | i
CCOC(=O)[C@@H](C)N(C(=O)OC(C)(C)C)S(=O)(=O)N(Cc1ccccc1)[C@@H](C(=O)OC)C(C)C | nt | nt | nt | i | nt | nt
COc1ccc2nc(N3C(=O)/C(=C/c4ccccc4)NC3=S)sc2c1 | ? | 12.6µM | ? | 5.01µM | i | i
CCOc1ccc2nc(N3C(=O)/C(=C/c4ccccc4)NC3=S)sc2c1 | i | ? | i | i | i | ?
COc1ccc(N2C(=O)Cc3cc(OC)c(OC)cc3C2c2ccc(F)cc2)cc1 (stereo unspecified) | nt | i | nt | i | nt | nt
Cc1cc2nc3c(=O)n(C4CCCCC4)c(=O)[nH]c3nc2cc1N | ? | 11.2µM | ? | 8.91µM | ? | i
Cc1cc(C)cc(Nc2cc(=O)n(C3CCCCC3)c(=O)[nH]2)c1 | i | nt | i | i | i | i
NC(=NCCCCCCN=C(N)/N=C(\N)Nc1ccc(Cl)cc1)/N=C(\N)Nc1ccc(Cl)cc1 | 51.7µM! | i | ? | i | ? | ?
CC(C)N=C(N)N=C(N)Nc1ccc(Cl)cc1 | i | i | i | i | i | i
SMILES | Rango-impB inh | Vif-APOBEC3F blk | Rango release inh | Vif-A3G inh | Eya2 inh | ASM inhibitor
CCS(=O)(=O)N1CCc2cc(C(=O)N3CCN(c4cccc(C(F)(F)F)c4)CC3)ccc21 | nt | i | nt | 12.6µM | nt | nt
NNC(=O)c1oc2nc(-c3cccs3)cc(-c3ccco3)c2c1N | nt | nt | nt | nt | i | nt
Cc1ccc(-c2cc(-c3ccco3)c3c(N)c(C(=O)NN)oc3n2)cc1 | ? | 11.2µM | ? | ? | i | i
Cc1cccc(NC(=O)Cn2cc(C(=O)C3CC3)c3ccccc32)c1 | i | i | i | i | i | i
Cc1cc(C)cc(NC(=O)Cn2cc(C(=O)C3CCCCC3)c3ccccc32)c1 | nt | 7.08µM | nt | ? | nt | nt
CN(C)c1ccc(/C=[N+]2\C(=O)CC(=O)NC2=O)cc1 | nt | nt | nt | i | nt | nt
CN(C)c1ccc(C2C=C(c3ccccc3)Nc3nnnn32)cc1 (stereo unspecified) | nt | 25.1µM | nt | ? | nt | nt
Cc1cc(=O)oc2c(CN3CCCC3)c(O)c(Cl)cc12 | ? | ? | 14.6µM | i | i | i
C=C1C=C(C)n2ncc(C(=O)Nc3cccc4cnccc34)c2N1 | nt | nt | nt | i | nt | nt
NC(=S)c1cc2cc(Cl)ccc2oc1=O | 25.9µM | i | i | i | i | i
N=C(N)c1ccc(N=Nc2c(O)ccc3c2[nH]c2ccccc23)cc1 | 58µM | i | i | i | nt | i
Cc1ccc(-n2nc3c(SCCN4CCOCC4)nnc(C)c3c2C)cc1 | i | 25.1µM | i | ? | i | nt
CCOc1ccc(-n2nc3c(SCCN4CCCC4)nnc(C)c3c2C)cc1 | ? | ? | i | ? | i | i
CC1(C)CCC(c2ccc(Cl)cc2)=C(CN2CCN(c3ccc(C(=O)NS(=O)(=O)c4ccc(N[C@H](CCN5CCOCC5)CSc5ccccc5)c(S(=O)(=O)C(F)(F)F)c4)cc3)CC2)C1 | nt | nt | nt | i | nt | nt
CC(=O)OCc1cnc(C)c2oc(=O)c(C(=O)Nc3ccc(F)cc3C)cc12 | nt | i | nt | i | nt | nt
CSc1cccc(NC(=O)c2cc3c(COC(C)=O)cnc(C)c3oc2=O)c1 | nt | 10µM | nt | ? | nt | nt
COc1ccc(/C=C/c2ccccn2)cc1 | nt | nt | nt | i | nt | nt
COc1ccccc1C(=O)Nc1ccc2nc(SCCOc3ccccc3C)sc2c1 | nt | i | nt | i | nt | nt
COc1ccc(NC(=O)CSc2nc(N)c(C#N)cc2C#N)cc1 | ? | i | i | i | i | i
COc1ccc2nc(SCC(=O)Nc3ccc4sc(C)nc4c3)c(C#N)cc2c1 | i | 22.4µM | i | i | i | i
CCCC(=O)NC(c1ccc(OC)cc1)c1ccc2cccnc2c1O (stereo unspecified) | i | 11.2µM | i | i | i | i
CCCC(=O)NC(c1ccccc1)c1ccc2cccnc2c1O (stereo unspecified) | i | i | i | ? | i | i
Cc1ccc(/C=C/c2ccc(N(C)C)cc2)[n+](C)c1 | ? | ? | ? | 11.2µM | ? | ?
CC[n+]1ccc(/C=C/c2ccc(N(C)C)cc2)c2ccccc21 | i | i | i | i | i | ?
CC[n+]1ccccc1/C=C/c1ccc(N(C)C)cc1 | 8.2µM | 22.4µM | ? | ? | i | i
CN(C)c1ccc(/C=C/c2cc[n+](C)cc2)cc1 | ? | ? | i | ? | i | i
